Experimental data reported in BindingDB's records for doi:10.1074/jbc.272.51.31949 (Schering-Plough Research Institute, 1997).

Target: T1, Galanin receptor type 3 (Rattus norvegicus, UniProt O88626)
T1 sequence (O88626 whole entry): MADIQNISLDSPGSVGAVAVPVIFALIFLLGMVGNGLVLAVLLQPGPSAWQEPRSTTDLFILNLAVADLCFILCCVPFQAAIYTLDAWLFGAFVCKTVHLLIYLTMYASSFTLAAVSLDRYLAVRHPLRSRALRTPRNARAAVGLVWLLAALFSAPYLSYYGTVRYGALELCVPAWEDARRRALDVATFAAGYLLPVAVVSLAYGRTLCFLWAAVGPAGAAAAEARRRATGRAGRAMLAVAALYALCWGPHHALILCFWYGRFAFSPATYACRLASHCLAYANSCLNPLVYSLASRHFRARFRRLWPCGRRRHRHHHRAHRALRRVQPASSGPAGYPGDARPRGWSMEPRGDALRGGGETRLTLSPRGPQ

Ki: 85 nM
SMILES: CSCC[C@H](NC(=O)[C@H](CC(C)C)NC(=O)CNC(=O)[C@H](Cc1ccccc1)NC(=O)[C@H](Cc1ccccc1)NC(=O)[C@H](CCC(N)=O)NC(=O)[C@H](CCC(N)=O)NC(=O)[C@@H]1CCCN1C(=O)CNC(=O)[C@H](CC(C)C)NC(=O)[C@H](CC(C)C)NC(=O)[C@H](Cc1ccc(O)cc1)NC(=O)CNC(=O)[C@H](C)NC(=O)[C@H](CO)NC(=O)[C@H](CC(N)=O)NC(=O)[C@H](CC(C)C)NC(=O)[C@@H](NC(=O)[C@H](Cc1c[nH]c2ccccc12)NC(=O)CN)[C@@H](C)O)C(N)=O
